The results in this text go back to ChEMBL document CHEMBL4229484, “7β-Methyl substituent is a structural locus associated with activity cliff for nepenthone analogues” (2018).

By UniProt entry, the sequences of proteins in these tests, tags left out. Where a name states a change or a piece, a line headed by the entry shows the natural chain unless it says otherwise.
UniProt P33535, whole entry, looked up: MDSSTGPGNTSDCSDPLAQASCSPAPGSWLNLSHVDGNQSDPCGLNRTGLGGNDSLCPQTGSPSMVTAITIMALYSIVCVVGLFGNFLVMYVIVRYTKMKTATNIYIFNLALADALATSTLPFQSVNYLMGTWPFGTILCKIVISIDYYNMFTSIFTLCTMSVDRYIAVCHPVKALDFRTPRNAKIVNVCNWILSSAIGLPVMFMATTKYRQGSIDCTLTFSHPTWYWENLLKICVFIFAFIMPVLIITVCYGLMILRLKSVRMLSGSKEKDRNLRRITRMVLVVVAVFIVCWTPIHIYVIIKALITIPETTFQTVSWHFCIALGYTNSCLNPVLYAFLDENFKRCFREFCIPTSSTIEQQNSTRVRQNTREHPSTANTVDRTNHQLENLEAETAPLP
UniProt P33533, whole entry, looked up: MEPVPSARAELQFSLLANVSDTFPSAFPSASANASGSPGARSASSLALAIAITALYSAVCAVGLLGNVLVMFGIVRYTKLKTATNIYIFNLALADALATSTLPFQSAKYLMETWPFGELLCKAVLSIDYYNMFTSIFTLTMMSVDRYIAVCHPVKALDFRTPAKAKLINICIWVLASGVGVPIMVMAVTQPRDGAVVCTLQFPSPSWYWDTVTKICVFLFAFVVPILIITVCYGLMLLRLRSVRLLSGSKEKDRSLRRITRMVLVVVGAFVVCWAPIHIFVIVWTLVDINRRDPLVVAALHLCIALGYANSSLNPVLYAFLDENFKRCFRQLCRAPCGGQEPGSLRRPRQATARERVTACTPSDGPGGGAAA
UniProt P41145: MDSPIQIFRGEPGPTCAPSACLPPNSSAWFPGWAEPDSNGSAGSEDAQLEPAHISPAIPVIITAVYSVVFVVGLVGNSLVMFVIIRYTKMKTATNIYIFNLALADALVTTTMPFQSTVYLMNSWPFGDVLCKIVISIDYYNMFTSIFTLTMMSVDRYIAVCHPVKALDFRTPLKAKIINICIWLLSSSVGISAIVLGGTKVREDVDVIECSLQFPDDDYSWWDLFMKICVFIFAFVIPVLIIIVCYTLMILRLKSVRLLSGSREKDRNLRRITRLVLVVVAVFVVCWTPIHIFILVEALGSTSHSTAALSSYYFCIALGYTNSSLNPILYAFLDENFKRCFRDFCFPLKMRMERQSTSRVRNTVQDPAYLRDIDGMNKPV

SMILES strings stand for the structures.

For one assay, the species on record is Homo sapiens. As to the kind of experiment: Selectivity ratio of Ki for human DOR expressed in CHO cell membranes to Ki for human KOR expressed in CHO cell membranes.
The target in assay [1] is Mu-type opioid receptor (Rattus norvegicus) (UniProt P33535). As to the kind of experiment: Agonist activity at rat MOR expressed in CHO cell membranes after 1 hr by [35S]GTPgammaS binding based liquid scintillation counting analysis relative to control. (GTPγS is a poorly hydrolysed GTP analogue; its binding reports G protein activation.)
The target of assay [2] is Delta-type opioid receptor (Rattus norvegicus) (UniProt P33533). As to the kind of experiment: Agonist activity at rat DOR expressed in CHO cell membranes after 1 hr by [35S]GTPgammaS binding based liquid scintillation counting analysis relative to control.
In assay [3] the target is Kappa-type opioid receptor (Homo sapiens) (UniProt P41145). As to the kind of experiment: Agonist activity at human KOR expressed in CHO cell membranes after 1 hr by [35S]GTPgammaS binding based liquid scintillation counting analysis relative to control.

`COc1ccc2c3c1O[C@H]1[C@@]4(OC)C=C[C@@]5(C[C@@H]4C(=O)c4ccccc4)[C@@H](C2)N(CC2CC2)CC[C@]315`: the Ratio Ki in the assay filed under Homo sapiens is 2030.
With `COc1ccc2c3c1O[C@H]1[C@@]4(OC)CC[C@@]5(C[C@]4(C)C(=O)c4ccc(-c6ccccc6)cc4)[C@@H](C2)N(CC2CC2)CC[C@]315`, the Ratio Ki in the assay filed under Homo sapiens worked out at 1.3.
The same measure, in the same setting: for `COc1ccc2c3c1O[C@H]1[C@@]4(OC)CC[C@@]5(C[C@]4(C)C=O)[C@@H](C2)N(CC2CC2)CC[C@]315` the value was 39; for `COc1ccc2c3c1O[C@H]1[C@@]4(OC)CC[C@@]5(C[C@]4(C)C(O)c4ccc(-c6ccccc6)cc4)[C@@H](C2)N(CC2CC2)CC[C@]315` (some centres undefined), 0.2; for `COc1ccc2c3c1O[C@H]1[C@@]4(OC)CC[C@@]5(C[C@]4(C)OC(=O)c4ccc(C(F)(F)F)cc4)[C@@H](C2)N(CC2CC2)CC[C@]315`, 1.
Regarding `COc1ccc(C(O)[C@@]2(C)C[C@@]34CC[C@]2(OC)[C@@H]2Oc5c(OC)ccc6c5[C@@]23CCN(CC2CC2)[C@@H]4C6)cc1` (some centres undefined), the Ratio Ki in the assay listed under Homo sapiens amounted to 30.
Still for that read-out and setting: next, `COc1ccc2c3c1O[C@H]1[C@@]4(OC)CC[C@@]5(C[C@]4(C)C(=O)c4ccc(C(F)(F)F)cc4)[C@@H](C2)N(CC2CC2)CC[C@]315`: 1.8.
Turning to `COc1ccc(C(=O)[C@@]2(C)C[C@@]34CC[C@]2(OC)[C@@H]2Oc5c(OC)ccc6c5[C@@]23CCN(CC2CC2)[C@@H]4C6)cc1`, the Ratio Ki in the assay filed under Homo sapiens came to 2.5.
Regarding `COc1ccc2c3c1O[C@H]1[C@@]4(OC)CC[C@@]5(C[C@]4(C)OC(C)=O)[C@@H](C2)N(CC2CC2)CC[C@]315`, in the assay filed under Homo sapiens, the Ratio Ki is 12.
Still for that read-out and setting: for `COc1ccc2c3c1O[C@H]1[C@@]4(OC)CC[C@@]5(C[C@]4(C)C(=O)c4ccccc4)[C@@H](C2)N(CC2CC2)CC[C@]315` the value was 10.
For the molecule `CN(C(=O)Cc1ccc(Cl)c(Cl)c1)C1CCCCC1N1CCCC1` (centres undefined), the Emax (in general, the greatest response seen or fitted, relative to the assay's reference) in assay [1] came to 122%; in assay [2], 113%; in assay [3], 262%.
Turning to `COc1ccc2c3c1O[C@H]1[C@@]4(OC)CC[C@@]5(C[C@]4(C)OC(=O)C(C)C)[C@@H](C2)N(CC2CC2)CC[C@]315`, the Ratio Ki in the assay filed under Homo sapiens turned out to be 9.
On the same count and under the same terms, for `COc1ccc2c3c1O[C@H]1[C@@]4(OC)CC[C@@]5(C[C@]4(C)C(O)c4ccc(C(F)(F)F)cc4)[C@@H](C2)N(CC2CC2)CC[C@]315` (some centres undefined) the value was 6.5; for `COc1ccc2c3c1O[C@H]1[C@@]4(OC)CC[C@@]5(C[C@]4(C)OC(=O)c4ccccc4)[C@@H](C2)N(CC2CC2)CC[C@]315`, 0.04.
Same read-out and setting: next, `COc1ccc2c3c1O[C@H]1[C@@]4(OC)CC[C@@]5(C[C@]4(C)C(O)c4ccccc4)[C@@H](C2)N(CC2CC2)CC[C@]315` (some centres undefined): 13.
Still for that read-out and setting: for `COc1cccc(C(O)[C@@]2(C)C[C@@]34CC[C@]2(OC)[C@@H]2Oc5c(OC)ccc6c5[C@@]23CCN(CC2CC2)[C@@H]4C6)c1` (some centres undefined) the value was 13; for `COc1ccc2c3c1O[C@H]1[C@@]4(OC)CC[C@@]5(C[C@]4(C)CO)[C@@H](C2)N(CC2CC2)CC[C@]315`, 43.
